Literature values as cited in patent publication US8629110B2, “Kv1.3 channel blocking substances for the treatment of diseases associated with intimal hyperplasia” (priority 2008, dated 2014).

The chains behind the UniProt entries cited, without tags or fusion partners.
UniProt P22001, whole entry: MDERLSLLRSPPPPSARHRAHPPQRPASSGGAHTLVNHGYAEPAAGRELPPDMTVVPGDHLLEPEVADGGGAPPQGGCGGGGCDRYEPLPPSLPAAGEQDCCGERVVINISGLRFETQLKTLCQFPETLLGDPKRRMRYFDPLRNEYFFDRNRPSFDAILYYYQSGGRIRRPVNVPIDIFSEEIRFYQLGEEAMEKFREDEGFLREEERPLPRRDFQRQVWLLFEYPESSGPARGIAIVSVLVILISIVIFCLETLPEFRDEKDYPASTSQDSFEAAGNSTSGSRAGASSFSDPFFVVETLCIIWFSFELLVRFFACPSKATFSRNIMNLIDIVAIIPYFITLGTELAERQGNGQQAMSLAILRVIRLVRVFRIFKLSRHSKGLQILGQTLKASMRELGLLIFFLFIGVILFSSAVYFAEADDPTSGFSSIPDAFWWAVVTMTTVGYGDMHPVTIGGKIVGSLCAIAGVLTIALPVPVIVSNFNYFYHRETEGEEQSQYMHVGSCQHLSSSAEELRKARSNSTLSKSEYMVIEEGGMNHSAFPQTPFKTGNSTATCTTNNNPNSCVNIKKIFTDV

Target: Kv1.3 channel (Homo sapiens, UniProt P22001)
Conditions: read-out: Affinity (Kd); cited from earlier work

CCCN=c1ccn(Cc2ccccc2)c2cc(Cl)ccc12
Kd: 200 nM
